Source: patent US9487511B2, “Cyclopropanamine compound and use thereof” (Takeda Pharmaceutical Company Limited, priority 2014, dated 2016)
Structures can show the parent of a compound that is named as a salt.

Sequences of proteins named here, by UniProt entry; tags and fusion partners are left off.
UniProt P27338, whole entry: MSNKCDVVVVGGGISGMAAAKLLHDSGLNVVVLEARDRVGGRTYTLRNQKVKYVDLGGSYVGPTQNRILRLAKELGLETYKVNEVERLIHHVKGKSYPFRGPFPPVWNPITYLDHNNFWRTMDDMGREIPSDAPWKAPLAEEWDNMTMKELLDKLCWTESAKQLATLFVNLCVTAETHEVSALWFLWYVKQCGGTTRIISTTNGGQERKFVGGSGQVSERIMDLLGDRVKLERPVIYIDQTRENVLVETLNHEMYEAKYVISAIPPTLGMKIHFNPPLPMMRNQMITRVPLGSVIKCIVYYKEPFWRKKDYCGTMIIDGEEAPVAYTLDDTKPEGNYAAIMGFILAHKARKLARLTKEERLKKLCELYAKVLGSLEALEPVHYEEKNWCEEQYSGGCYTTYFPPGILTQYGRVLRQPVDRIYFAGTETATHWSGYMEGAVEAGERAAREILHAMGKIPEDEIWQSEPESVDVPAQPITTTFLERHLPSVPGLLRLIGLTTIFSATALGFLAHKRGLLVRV
UniProt P21397, whole entry: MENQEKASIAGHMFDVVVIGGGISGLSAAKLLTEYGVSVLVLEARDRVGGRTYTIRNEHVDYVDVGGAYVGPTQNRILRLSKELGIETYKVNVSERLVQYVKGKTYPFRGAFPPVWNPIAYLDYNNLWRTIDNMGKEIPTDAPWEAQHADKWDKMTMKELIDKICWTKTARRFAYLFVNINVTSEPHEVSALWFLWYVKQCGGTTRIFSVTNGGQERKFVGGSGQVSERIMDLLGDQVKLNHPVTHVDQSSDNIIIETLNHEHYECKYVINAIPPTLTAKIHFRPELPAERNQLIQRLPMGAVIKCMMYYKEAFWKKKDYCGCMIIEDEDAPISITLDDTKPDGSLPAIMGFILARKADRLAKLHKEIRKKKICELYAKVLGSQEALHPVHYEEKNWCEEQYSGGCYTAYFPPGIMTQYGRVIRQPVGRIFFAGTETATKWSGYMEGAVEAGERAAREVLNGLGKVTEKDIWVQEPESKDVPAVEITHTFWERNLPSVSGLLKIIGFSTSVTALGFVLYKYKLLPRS

Legend:
[1] = biological target: MAO-B enzyme (Homo sapiens (Human), UniProt P27338); assay: Measurement of MAO-B inhibitory activity (MAO-Glo Assay); assay type: biochemical
[2] = biological target: MAO-A enzyme (Homo sapiens (Human), UniProt P21397); assay: Measurement of MAO-A inhibitory activity (MAO-Glo Assay); assay type: biochemical
[3] = in vivo; settings: male, ICR, mouse, hippocampus/plasma, po, 10 mg/kg, Ratio (hippocampus/plasma), Mean, male ICR mice, 10 mg/kg oral, 1 h after administration

| SMILES | IC50 [1] [µM] | IC50 [2] [µM] | Kp at 1 h [3] |
| --- | --- | --- | --- |
| O=C(NC1CCOCC1)c1cc([C@@H]2C[C@H]2NC2CCC2)cs1 (relative stereo) [Example 63, 4-(trans-2-(cyclobutylamino)cyclopropyl)-N-(tetrahydro-2H-pyran-4-yl)thiophene-2-carboxamide hydrochloride] | > 100 | > 100 | – |
| O=C(NC1CCOCC1)c1csc([C@@H]2C[C@H]2NCC2CC2)c1 [Example 71, 5-((1R,2R)-2-((cyclopropylmethyl)amino)cyclopropyl)-N-(tetrahydro-2H-pyran-4-yl)thiophene-3-carboxamide hydrochloride] | – | – | 0.358 |
| Cn1cc(NC(=O)c2cc([C@@H]3C[C@H]3NCC3CC3)cs2)cn1 (relative stereo) [Example 62, 4-(trans-2-((cyclopropylmethyl)amino)cyclopropyl)-N-(1-methyl-1H-pyrazol-4-yl)thiophene-2-carboxamide dihydrochloride] | > 100 | – | – |
| Cc1sc(C(=O)NC2CCC(F)(F)CC2)cc1[C@@H]1C[C@H]1NC1CCOCC1 (relative stereo) [Example 21, N-(4,4-difluorocyclohexyl)-5-methyl-4-(trans-2-(tetrahydro-2H-pyran-4-ylamino)cyclopropyl)thiophene-2-carboxamide fumarate] | – | > 100 | – |
